# According to US20080300259A1:
# Sequences of proteins named here, by UniProt entry; tags and fusion partners are left off.
# UniProt Q01959, whole entry: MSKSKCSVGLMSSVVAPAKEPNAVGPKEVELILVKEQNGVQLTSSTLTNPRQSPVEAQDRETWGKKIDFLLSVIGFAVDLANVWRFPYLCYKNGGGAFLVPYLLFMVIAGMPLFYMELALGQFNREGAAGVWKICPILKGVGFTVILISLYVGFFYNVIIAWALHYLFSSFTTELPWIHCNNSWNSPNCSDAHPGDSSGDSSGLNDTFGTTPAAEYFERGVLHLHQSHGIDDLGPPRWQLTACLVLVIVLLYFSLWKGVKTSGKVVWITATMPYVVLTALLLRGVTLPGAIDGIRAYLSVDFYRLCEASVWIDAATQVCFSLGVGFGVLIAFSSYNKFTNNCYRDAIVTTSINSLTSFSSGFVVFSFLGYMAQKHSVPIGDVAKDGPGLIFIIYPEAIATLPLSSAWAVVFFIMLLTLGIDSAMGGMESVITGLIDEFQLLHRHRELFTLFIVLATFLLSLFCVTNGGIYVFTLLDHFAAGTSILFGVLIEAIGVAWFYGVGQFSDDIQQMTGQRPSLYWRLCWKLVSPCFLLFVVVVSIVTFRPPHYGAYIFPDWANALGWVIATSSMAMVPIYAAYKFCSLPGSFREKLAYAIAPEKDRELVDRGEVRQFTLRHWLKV
# What was measured:
# DAT (SLC6A3) = DAT (SLC6A3) (Homo sapiens, UniProt Q01959); test: uptake assay for measuring IC50 of DAT; details: read-out: IC50 against DAT (SLC6A3); in vitro, cells expressing DAT; typical result (FIG. 4)
# Protocol: (§1) The in vitro inhibitory profile of an illustrative 5HT6—D3/DAT compound, CNS-25,100, was determined by measuring its IC50 using standard assays.
# In a typical uptake assay for measuring IC50 of DAT, the assay is performed at room temperature in Krebs-Ringer's-HEPES (KRH) buffer (125 mM NaCl, 4.8 mM KCl, 1.2 mM MgSO4, 1.2 mM KH2PO4, 1.3 mM CaCl2, and 25 mM HEPES, pH 7.4), supplemented with 0.1% D-glucose, 1 mM ascorbic acid, 1 mM tropolone [catechol-O-methyltransferase (EC 2.1.1.6)-inhibitor] and 10 μM pargyline (monoamine oxidase-B inhibitor). Before the assay, cells expressing DAT are washed once with KRH and equilibrated for 5 min. The cells may be assayed in 24-well plates and incubated for 2-5 min with tritiated amines. Nontransported inhibitors were preincubated for 5 min, and substrates were applied together with the tritiated substrate. The uptake assay is terminated with two washes of ice-cold KRH, and the accumulated radioactivity is recovered by lysing the cells in 0.2% SDS and 0.1 N NaOH and counting on a Liquid Scintillation Analyzer 1900 TR (Packard, Meriden, Conn.). Nonspecific uptake can be determined in the presence of 10 μM GBR12909 (for hDAT). […]
# Vmax values for amine uptake in stable transfected DAT-cells are determined in parallel assays for at least two amines per experiment and expressed as relative values.
# 5-HT-6 receptor = test: standard uptake assay using labeled 5-HT for IC50 at 5-HT-6 receptor; details: read-out: IC50 for 5-HT-6 receptor; in vitro; typical result (FIG. 4)
# Protocol: as §1
# Similarly, IC50 for 5-HT-6 receptor can be measured using a standard uptake assay using labled 5-HT. See Rudolph et al., J. Pharmacol. Exp. Ther. 287(1): 389-94, 1998. Briefly, the time course of the 5HT uptake can be determined by incubating each cell/tissue with the receptor at different periods in containers containing 2 ml of RBS without Ca++ at 30° C. in which [^3H]5HT (38 nM) is added. For estimating the kinetic parameters of 5HT uptake, several concentrations of [^3H]5HT may be used, ranging, for example, from 25 to 240 mM, using a 30-min incubation period. Corresponding incubations were conducted in a Na+-free medium to correct for nonspecific uptake. Radioactivity not incorporated by the tissue/cell is washed off by further incubation for 10 min in 100 ml of RBS. The tissue/cell is homogenized in 2 ml of 10% perchloric acid at the end of the incubation. The resulting suspension is centrifuged at 600×g for 5 min and 0.1 ml of the supernatant is analyzed for radioactivity.
smiles,measurement,setting,value
CC1CCC(c2nc(C3(c4ccccc4F)CCCC3)cs2)CN1C1(c2ccc(Cl)cc2)CCC1 (centres unmarked),IC50,DAT (SLC6A3),40 to 60 nM
same,IC50,5-HT-6 receptor,30 to 45 nM
